# Reference: publication PMC10291551, “Characterization of a Potent and Orally Bioavailable Lys-Covalent Inhibitor of Apoptosis Protein (IAP) Antagonist” (Journal of Medicinal Chemistry, 2023)
# Tests used:
# [1] = tested on: MDA-MB-231 NucLight Red cells; assay: 3D spheroid culture cell-killing assay (IncuCyte S3); format: cell-based; settings: Homo sapiens, MDA-MB-231, 144 h, read-out: EC50 3D culture (red fluorescence intensity)
# [2] = parameters: method as in PMID 31550155; settings: cited from earlier work
# [3] = tested on: MDA-MB-231 NucLight Red cells; assay: cells; settings: Homo sapiens, MDA-MB-231, 24 h, read-out: EC50 apoptosis (caspase-3/7 activity)
# [4] = aqueous buffer pH = 7.5, T = 25 °C; cited from earlier work
structure (smiles),measurement,setting,value
"CN[C@@H](C)C(=O)N[C@H](C(=O)N1CCC[C@H]1C(=O)N[C@@H]1CCc2c(OS(=O)(=O)F)cccc21)C1CCCCC1 [142D6, (R)-1-((S)-1-((S)-2-cyclohexyl-2-((S)-2-(methylamino)propanamido)acetyl)pyrrolidine-2-carboxamido)-2,3-dihydro-1H-inden-4-yl sulfurofluoridate]",EC50,[1],94.2 ± 6.2 nM
same,plasma stability t1/2,[2],> 2 h
same,EC50,[3],61 ± 12 nM
same,stability in aqueous buffer (long-lived),[4],several hours
